In this series the target is hERG potassium channel (Homo sapiens, UniProt Q12809). Description: in vitro. Conditions: Mean % hERG Inhibition. How it is done:
The in vitro effects of compounds A, B, C, D, E, and F on the hERG (human ether-à-go-go-related gene) potassium channel current (a surrogate for IKr, the rapidly activating, delayed rectifier cardiac potassium current) expressed in mammalian cells were evaluated at room temperature using the QPatch HT (Sophion Bioscience A/S, Denmark), an automatic parallel patch clamp system. The test articles were evaluated at 1 μM, 3 μM, […] and 30 μM. Each test article concentration was tested in at least three cells. The duration of exposure to each test article concentration was a minimum of 3 minutes.
(The hERG channel carries a current that helps repolarise heart muscle cells.)

By UniProt entry, the sequences of proteins in these tests, tags left out. Where a name states a change or a piece, a line headed by the entry shows the natural chain unless it says otherwise.
UniProt Q12809: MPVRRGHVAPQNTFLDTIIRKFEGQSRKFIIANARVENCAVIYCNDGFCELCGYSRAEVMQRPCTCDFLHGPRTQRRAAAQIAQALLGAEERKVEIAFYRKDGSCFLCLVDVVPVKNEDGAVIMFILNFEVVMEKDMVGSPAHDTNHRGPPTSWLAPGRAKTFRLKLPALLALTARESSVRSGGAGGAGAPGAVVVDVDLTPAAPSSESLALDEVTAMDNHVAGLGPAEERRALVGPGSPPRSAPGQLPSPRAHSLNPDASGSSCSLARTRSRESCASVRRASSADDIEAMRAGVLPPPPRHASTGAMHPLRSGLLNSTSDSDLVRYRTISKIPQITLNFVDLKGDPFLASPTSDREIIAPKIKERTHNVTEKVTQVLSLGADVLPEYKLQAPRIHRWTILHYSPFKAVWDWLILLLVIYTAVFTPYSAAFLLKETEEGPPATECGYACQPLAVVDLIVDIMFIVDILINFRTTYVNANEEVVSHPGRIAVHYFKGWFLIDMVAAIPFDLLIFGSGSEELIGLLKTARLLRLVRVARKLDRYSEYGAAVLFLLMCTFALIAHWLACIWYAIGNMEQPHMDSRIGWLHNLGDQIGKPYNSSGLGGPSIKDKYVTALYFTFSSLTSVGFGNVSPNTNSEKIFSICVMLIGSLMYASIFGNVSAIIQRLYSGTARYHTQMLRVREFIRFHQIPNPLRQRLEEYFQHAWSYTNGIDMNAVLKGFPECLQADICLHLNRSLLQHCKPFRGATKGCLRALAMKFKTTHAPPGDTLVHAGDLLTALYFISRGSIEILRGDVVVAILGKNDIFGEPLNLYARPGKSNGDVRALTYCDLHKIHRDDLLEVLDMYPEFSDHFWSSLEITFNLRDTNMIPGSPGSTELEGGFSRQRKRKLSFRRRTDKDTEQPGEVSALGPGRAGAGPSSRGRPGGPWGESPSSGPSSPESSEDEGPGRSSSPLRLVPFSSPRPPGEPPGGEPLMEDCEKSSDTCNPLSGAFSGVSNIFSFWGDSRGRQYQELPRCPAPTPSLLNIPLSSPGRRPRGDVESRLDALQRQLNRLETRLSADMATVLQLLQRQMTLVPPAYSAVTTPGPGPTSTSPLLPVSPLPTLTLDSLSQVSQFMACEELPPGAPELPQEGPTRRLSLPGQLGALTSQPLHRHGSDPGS

By inhibition is commonly meant the relative decrease from the control value, in per cent. A higher inhibition goes with strong suppression.

In the case of `COc1cc(N)c(Cl)cc1C(=O)NC1CCN(CCCOc2ccc(F)cc2)CC1OC` (stereo not shown) [Cisapride, reference compound], 0.05 µM produced 72.7% inhibition.
